# AlphaSeq binding of Ab-14 heavy chain variants to a spike HR2 peptide

Reference: Li et al. 2023, doi:10.1038/s41467-023-39022-2. File: FLAb, binding data.

Antigen: PDVDLGDISGINAS, a 14-residue peptide of the SARS-CoV-2 spike HR2 region.

The variants keep the light chain, the linker and the frameworks of Ab-14 (scFv order VH, three GGGGS repeats, VL).
VH: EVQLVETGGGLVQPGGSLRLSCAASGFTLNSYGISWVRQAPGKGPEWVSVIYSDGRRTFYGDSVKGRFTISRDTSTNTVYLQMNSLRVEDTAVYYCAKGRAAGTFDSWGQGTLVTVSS
VL: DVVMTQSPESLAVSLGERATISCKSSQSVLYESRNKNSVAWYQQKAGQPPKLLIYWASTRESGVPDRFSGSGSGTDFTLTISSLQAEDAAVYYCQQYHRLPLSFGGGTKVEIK

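Phage display of a naive human antibody library on the peptide gave the parent. The variants were designed computationally from a first round of random CDR variants and then made and measured. Group labels follow the data file (Ctrl: baseline library sampled from a position-specific scoring matrix, with some repeated check sequences; GPLM: also part of the Gaussian process libraries; Gen: genetic algorithm; a sequence that several methods proposed may carry one label only). Affinity was read by AlphaSeq, a pooled yeast mating assay with surface-displayed partners. The frequency of each diploid, read from paired DNA barcodes, reflects how well the two displayed proteins bind. The ratio of observed to expected reads was calibrated, replicate by replicate, on BCL2-family standards whose Kd was known from biolayer interferometry. Each pool was mated in six replicate cultures.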

Positions count from residue 1 of the parent VH; S53A puts A in place of S.
Values are log10 of the apparent Kd in nM; lower means stronger binding.
An entry "nd" has no value in the source: the pair was not observed among the diploids in that replicate. This suggests poor binding but is not conclusive.

changes	group	log10 Kd, replicates	empty controls
S53A+T58A+F59A+K65A+G99C	Ctrl	nd nd nd nd nd nd	1 of 18 (1.93)
N30M+S31M+S107W	Ctrl	nd nd nd nd nd nd	0 of 18
N30D+A102S	Ctrl	nd nd 2.45 nd nd 2.33	0 of 18
F27Q+T28N+F59S+A102Q+F105I	Ctrl	nd nd nd nd nd nd	0 of 18
T58C+R100V+A101Q+A102G+S107W	Ctrl	nd nd nd nd nd nd	0 of 18
L29I+A102E+T104F	Ctrl	nd nd nd nd nd nd	0 of 18
G26K+F27N	Ctrl	2.09 nd nd nd nd nd	0 of 18
S31Q+S63E+A101S	Ctrl	nd nd nd nd nd nd	0 of 18
T58E+R100M+G103V	Ctrl	nd nd nd nd nd nd	0 of 18
Y52A+F105M+D106V	Ctrl	nd nd nd nd nd 1.63	2 of 18 (1.75)
F27H+N30Q+A101W+A102M	Ctrl	nd nd nd nd nd nd	0 of 18
T28S+G33S+D106M	Ctrl	nd nd nd nd nd nd	0 of 18
G61S+A101W+D106P	Ctrl	nd nd nd nd nd nd	0 of 18
S53M+G99T+R100Q+S107Y	Ctrl	nd nd nd nd nd nd	0 of 18
G61T+K65E	Ctrl	1.15 1.24 1.25 1.53 0.56 1.73	0 of 18
G61A+A102P+D106P	Ctrl	1.79 1.17 0.91 1.17 1.64 2.06	0 of 18
N30D+G61D+D62N	Ctrl	1.24 1.07 2.12 0.99 1.74 1.71	0 of 18
T28D+D54Q+R56W+R100Y+F105A	Ctrl	nd nd nd nd nd nd	0 of 18
G26T+A101H+A102G	Ctrl	nd nd nd 1.40 nd nd	0 of 18
T58N+G99R+T104R	Ctrl	nd nd nd nd nd nd	0 of 18
T28R+G61F+S63Q	Ctrl	nd nd nd nd nd nd	0 of 18
T28N+S107K	Ctrl	nd nd 1.45 nd nd 2.22	0 of 18
F27R+G61S+G99H+G103S	Ctrl	nd nd nd nd nd nd	1 of 18 (2.63)
S31N+Y32T+T58K+S63Q	Ctrl	nd nd nd nd nd nd	1 of 18 (1.27)
R100I+A102S	Ctrl	nd nd nd nd nd nd	0 of 18
T58C+F59S+G61R+A101P+D106P	Ctrl	nd nd nd nd nd nd	0 of 18
N30E+Y60I+R100T	Ctrl	0.71 0.29 0.13 0.84 0.08 0.22	1 of 18 (2.04)
R100S	Ctrl	0.95 1.51 0.61 1.69 1.82 1.62	0 of 18
R56L+T58L+R100N	Ctrl	nd nd nd nd nd nd	0 of 18
L29I+S31D+R57C+S63D	Ctrl	nd nd nd nd nd nd	0 of 18
L29I+A101W+T104S	Ctrl	nd nd nd nd nd 1.45	1 of 18 (0.99)
L29I+S31Q+G61Q+A101V	Ctrl	nd nd 0.33 nd nd 0.51	0 of 18
G61A+D62Q	Ctrl	nd nd nd nd nd nd	0 of 18
G61I	Ctrl+GPLM_Gen	nd nd nd nd nd nd; nd nd nd nd nd nd	0 of 36
R56K+R100Q+A101D+G103A	Ctrl	nd nd nd nd nd nd	0 of 18
S53A+A101D+T104K	Ctrl	nd nd nd nd nd nd	0 of 18
N30D+S107W	Ctrl	nd 1.97 2.03 nd nd nd	0 of 18
Y32F+R100E+G103A	Ctrl	nd nd nd nd nd nd	1 of 18 (2.15)
G61D+G103L	Ctrl	nd nd nd nd nd nd	0 of 18
F59Q+F105K	Ctrl	nd nd nd nd nd nd	0 of 18
F59Q+A101F	Ctrl	nd nd nd nd nd 2.55	0 of 18
S53A+A102T+G103L+S107D	Ctrl	nd nd nd nd nd nd	0 of 18
G61K+S63Q	Ctrl	nd 0.80 nd nd nd nd	0 of 18
F27T+S31D+R56M+F59E+G61Y	Ctrl	nd nd nd 1.94 nd nd	0 of 18
G26T+T28Q+L29I+T58L+G61S+R100A+A101E	Ctrl	nd nd nd nd nd nd	0 of 18
T28H+G61I+S63N+V64H+D106P+S107V	Ctrl	nd nd nd nd nd nd	0 of 18
G26K+T28S+S31E+A102P	Ctrl	nd 0.94 nd nd nd nd	0 of 18

A selection of 3 entries from above:

changes,group,"log10 Kd, replicates",empty controls
R56K+R100Q+A101D+G103A,Ctrl,nd nd nd nd nd nd,0 of 18
S53A+A102T+G103L+S107D,Ctrl,nd nd nd nd nd nd,0 of 18
T28S+G33S+D106M,Ctrl,nd nd nd nd nd nd,0 of 18

Values of this round are not directly comparable with the first-round values of the same sequences.
Empty control strains, which show no peptide, gave a signal in 1% of pairings with all heavy chain designs; the median was 2.08 and 95% of these signals were weaker than 0.84. No background was subtracted. Also given: how often the same scFv was detected with the empty control strains, with their mean in brackets.
In the paper, a design with two or fewer of six values counts as a poor binder.
Some sequences occur more than once in the pool; their replicates are listed entry by entry, parted by semicolons.
The parent sequence was in this pool as ten entries: three were never detected, three once, and four in most replicates, with averages from 0.34 to 2.37.